Assay results as given in patent US8242152B2, “Use of 4-[(4-thiazolyl)phenoxy]alkoxy-benzamidine derivatives for the prophylaxis and treatment of osteoporosis” (Dong Wha Pharmaceutical Co., Ltd., priority 2001, dated 2012).

System: ovariectomized ddY mice
Assay: Prophylactic effects in ovariectomized ddY mouse model (estrogen-deficient osteoporosis)
Format: in vivo
Details: right femur; 10 mg/kg oral once a day for 6 weeks (F10, D10)
Source text: The effects of a drug would be based on histomorphometric changes of trabecular bone and thickness cortical bone in this model.
The objective of present study is to observe the prophylactic effect of DW1350MSA, and administration of drug was initiated 3 days after ovariectomy for prophylaxis study. The results were compared to that of Fosamax, well-documented anti-osteoporotic agents.
Twenty-five female ddY mice (6-wk old upon receipt, SLC, Japan) were used after acclimatization for 7 days. Animals were allocated 5 per polycarbonate cage in a temperature (20-25° C.) and humidity (30-35%) controlled room. Light:dark cycle was 12 hr:12 hr and feed (Samyang, Korea) and water were supplied free to access. […]
Histomorphometric changes of tibia and femur were evaluated. All histomorphometric indices including trabecular bone volume (TBV, %), thickness of trabecular bone (Tbt), trabecular bone number (Tbn), and length of trabeculer bone (Tbl) were calculated using automated image analysis (analysis Image Processing; SIS, Germany) under magnification 200 (×200) of microscopy (Zeiss, Germany) in the epiphyseal regions of right tibia and/or femur. In addition, cortical bone thickness (Cbt) was measured in mid-shaft region of right tibia and femur. […] Tbt and Tbl were calculated as um levels, and Tbn were calculated as number/whole sectional part of epiphyseal regions levels. • C. […]

NCCCC(O)(P(=O)(O)O)P(=O)(O)O [Fosamax, Alendronate]
Ocn, osteoclast cell number: 9.40 ± 1.14 number
